Patent US20220362394A1 (SUTRO BIOPHARMA, published 2022)
Each block holds one binder with its values, some of them ahead of it.

Assays:
human BCMA on cells [1] = target: T1, human BCMA on cells (human, UniProt Q02223 1-184); test: FACS, U266B1 cells
T1 construct: also called hBCMA; BCMA on NCI-H929, ARP-1, OPM-2, U266B1, MM.1S, RPMI-8226 cells
T1 sequence: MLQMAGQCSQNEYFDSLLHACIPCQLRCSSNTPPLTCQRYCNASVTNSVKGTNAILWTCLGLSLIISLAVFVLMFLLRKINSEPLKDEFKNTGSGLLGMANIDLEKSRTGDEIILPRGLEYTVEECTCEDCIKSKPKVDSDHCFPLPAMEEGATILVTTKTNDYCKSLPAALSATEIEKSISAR
Method: Cells were analyzed using a BD FACS Canto system. Fluorescence-activated cell sorting (FACS) data were analyzed using Flowjo software to calculate mean fluorescence intensity (MFI) (n=3 replicates) and data (mean MFI+/−standard error of the mean [SEM] versus nM of the antibody) was generated using the GraphPad Prism software.

[2] = target: T2, Recombinant human BCMA ECD protein (Acro Biosystems) (human, UniProt Q02223 1-54); test: competition ELISA, coated BCMA ECD, competitor APRIL 10 ng/ml, Experiment No.2
T2 construct: also called recombinant BCMA
T2 sequence: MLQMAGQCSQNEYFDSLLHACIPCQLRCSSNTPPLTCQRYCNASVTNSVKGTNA

[3] = target: T2, Recombinant human BCMA ECD protein …; test: competition ELISA, coated BCMA ECD, competitor BAFF 1 ng/ml, Experiment No.2
[4] = target: T2, Recombinant human BCMA ECD protein …; test: competition ELISA, coated BCMA ECD, competitor BAFF 1 ng/ml, Experiment No.1
[5] = target: T2, Recombinant human BCMA ECD protein …; test: competition ELISA, coated BCMA ECD, competitor APRIL 10 ng/ml, Experiment No.1
human BCMA on cells [6] = target: T1, human BCMA on cells; test: FACS, 293T-hBCMA cells

Kd (human BCMA on cells [1]): 1.4 nM
B1: 2265-F02 Y180/F404 (unconjugated Ab) (antibody, human IgG1, kappa, V domains shown)
VH: EVQLVESGGGLVQPGGSLRLSCAASGFNISAPGIHWVRQAPGKGLEWVGFINPAGGYTDYADSVKGRFTISADTSKNTAYLQMNSLRAEDTAVYYCARDYIRQYWTYVLDYWGQGTLVTVSS
VL: not shown
modifications: p-azidomethyl-phenylalanine in place of HC-Y180 and HC-F404 (EU numbering), unconjugated
notes: also called unconjugated anti-BCMA antibody, 2265-F02; unconjugated antibody version of Conjugate 4

IC50 [2]: 8.9 nM
IC50 [3]: 6.9 nM
IC50 [4]: 6.8 nM
IC50 [5]: 8.3 nM
Kd (human BCMA on cells [6]): 1.4 nM
B2: Conjugate 4 (antibody, human IgG1, kappa, V domains shown)
VH: B1 VH
VL: not shown
modifications: p-azidomethyl-phenylalanine in place of HC-Y180 and HC-F404 (EU numbering), each bonded to a non-cleavable maytansine linker-warhead (Conjugate M); DAR4
notes: also called Conjugate 4 ADC; SP8919 ADC
